Legend:
ERK2 [1] = molecular target: T1, ERK2 (Homo sapiens, UniProt P28482); settings: read-out: IC50 against ERK2; enzymatic assay; ref 2 (Ohori and co-workers); cited from earlier work
ERK2 [2] = molecular target: T1, ERK2; settings: read-out: Kd ERK2
ERK1 [3] = molecular target: T2, ERK1 (Homo sapiens, UniProt P27361); settings: read-out: IC50 against ERK1; enzymatic assay; ref 2 (Ohori and co-workers); cited from earlier work
ERK1 [4] = molecular target: T2, ERK1; assay: dissociation constant against ERK1; format: binding; settings: read-out: Kd ERK1

Chains of the proteins cited; added tags and fusions are not shown.
UniProt P28482, whole entry: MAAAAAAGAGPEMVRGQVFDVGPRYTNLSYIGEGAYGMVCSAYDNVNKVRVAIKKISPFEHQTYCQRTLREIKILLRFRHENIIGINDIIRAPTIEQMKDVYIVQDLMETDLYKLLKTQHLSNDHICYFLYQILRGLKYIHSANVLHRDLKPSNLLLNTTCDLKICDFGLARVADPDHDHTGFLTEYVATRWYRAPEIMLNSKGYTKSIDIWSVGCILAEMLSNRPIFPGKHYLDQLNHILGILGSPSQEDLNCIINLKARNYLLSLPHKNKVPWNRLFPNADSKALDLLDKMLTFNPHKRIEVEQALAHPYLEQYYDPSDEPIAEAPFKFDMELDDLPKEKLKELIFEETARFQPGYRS
UniProt P27361, whole entry: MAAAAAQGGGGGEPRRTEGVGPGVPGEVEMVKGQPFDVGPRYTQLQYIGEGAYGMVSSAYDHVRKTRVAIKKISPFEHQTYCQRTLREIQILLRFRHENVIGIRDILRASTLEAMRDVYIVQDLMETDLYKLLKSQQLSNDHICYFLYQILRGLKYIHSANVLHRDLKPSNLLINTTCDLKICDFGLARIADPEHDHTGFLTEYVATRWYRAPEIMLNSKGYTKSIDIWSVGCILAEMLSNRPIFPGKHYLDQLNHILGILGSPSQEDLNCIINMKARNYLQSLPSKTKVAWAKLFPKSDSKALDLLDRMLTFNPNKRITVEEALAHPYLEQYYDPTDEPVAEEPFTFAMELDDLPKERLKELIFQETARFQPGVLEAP

Structure (SMILES): Nc1[nH]nc2nnc(-c3c(-c4ccccc4)nn4ccccc34)cc12 [FR180204]
- IC50 (ERK2 [1]): 330 nM
- Kd (ERK2 [2]): 420 nM
- IC50 (ERK1 [3]): 510 nM
- Kd (ERK1 [4]): 160 nM
